{
  "sequences": {"note": "Sequences of proteins named here, by UniProt entry; tags and fusion partners are left off.", "UniProt P30989, whole entry": "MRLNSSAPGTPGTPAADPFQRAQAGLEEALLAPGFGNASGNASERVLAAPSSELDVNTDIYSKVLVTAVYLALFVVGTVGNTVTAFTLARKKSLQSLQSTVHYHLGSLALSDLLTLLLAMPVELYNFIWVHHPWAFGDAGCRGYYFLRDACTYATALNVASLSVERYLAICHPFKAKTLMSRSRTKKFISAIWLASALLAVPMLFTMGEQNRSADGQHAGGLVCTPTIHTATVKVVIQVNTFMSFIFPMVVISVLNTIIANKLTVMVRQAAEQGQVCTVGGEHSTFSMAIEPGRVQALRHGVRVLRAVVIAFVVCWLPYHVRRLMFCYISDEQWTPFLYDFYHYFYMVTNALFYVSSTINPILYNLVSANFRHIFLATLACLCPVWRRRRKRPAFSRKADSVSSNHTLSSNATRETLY"},
  "source": "PubChem BioAssay AID493036",
  "about": "(Sanford-Burnham Center for Chemical Genomics, 2011)",
  "note": "Only a part is listed here, and it is no random draw. Active and inactive are the calls of the source.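 The calls were made as follows: active = activation at or above 40% of the spot to cytoplasm intensity ratio, with at least 20 cells analyzed; inconclusive = wells under 20 cells, flagged as cytotoxic or low count; inactive = the rest.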",
  "data": [
    {"target": "Neurotensin receptor type 1 (Homo sapiens) (UniProt P30989)", "assay": "agonists of NTR1, primary screen, imaging, U2OS cells, beta-arrestin-GFP, high content (AID 493036) (AID 493036);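 also: 0% = DMSO without peptide and 100% = 100 nM NTR1 peptide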", "conditions": "NTR1-U2OS beta-arrestin-GFP spot imaging, agonist mode; at 20 µM; active compounds read high", "values": [
      {"smiles": "CCOP1(=S)c2c(C)nn(CCC#N)c2N=C(c2ccc(F)cc2)N1C", "note": "(stereo not given)", "activation": "inactive: -0.1%"},
      {"smiles": "N#CCCN(C(=O)COC(=O)C(O)(c1ccccc1)c1ccccc1)c1ccc(F)cc1", "activation": "inactive: -0.2%"},
      {"smiles": "CN(C(=O)Cc1ccc(Cl)c(Cl)c1)[C@H]1CC[C@@]2(CCCO2)C[C@@H]1N1CCCC1", "activation": "inactive: -0.8%"},
      {"smiles": "CC1=NCCc2c1[nH]c1ccccc21.O=[N+]([O-])c1cc([N+](=O)[O-])c(O)c([N+](=O)[O-])c1", "activation": "inactive: -0.2%"},
      {"smiles": "CN(C)C(=O)c1cc([N+](=O)[O-])cc2c1-c1c(cc([N+](=O)[O-])cc1[N+](=O)[O-])C2=O", "activation": "inactive: 1.6%"},
      {"smiles": "O=[N+]([O-])c1ccc2c(c1)nnn2O", "activation": "inactive: -1.5%"},
      {"smiles": "NC(=O)Nc1ccc([As](=O)(O)O)cc1", "activation": "inactive: -2.4%"},
      {"smiles": "Cc1cc(C)cc(OP(C)(=O)Nc2ccc(C)cc2C)c1", "note": "(stereo not given)", "activation": "inactive: 0.4%"},
      {"smiles": "O=[As](O)(c1cccc(O)c1)c1cccc(O)c1", "activation": "inactive: 0.1%"},
      {"smiles": "Cc1cccc(OCC(=O)OC2CN3CCC2CC3)c1", "note": "(stereo not given)", "activation": "inactive: -0.1%"},
      {"smiles": "CCOC(=O)c1ccc(NP(C)(=O)Oc2cc(C)cc(C)c2)cc1", "note": "(stereo not given)", "activation": "inactive: 5.4%"},
      {"smiles": "O=C(OC1CN2CCC1CC2)c1ccc(Cl)cc1", "note": "(stereo not given)", "activation": "inactive: 0%"},
      {"smiles": "COc1ccccc1OP(C)(=O)Nc1cccc(Br)c1", "note": "(stereo not given)", "activation": "inactive: 0.2%"},
      {"smiles": "CS(=O)(=O)c1ccc(Cl)c(NC(=O)COC(=O)C(O)(c2ccccc2)c2ccccc2)c1", "activation": "inactive: 2.6%"},
      {"smiles": "COc1cc(C(=O)NCC2(N3CCOCC3)CCCCC2)cc(Cl)c1OC(C)C", "activation": "inactive: 1.1%"},
      {"smiles": "O=[As](O)(O)c1cccnc1", "activation": "inactive: -1.4%"},
      {"smiles": "CCOP(=O)(Nc1cccc2ccccc12)OCC", "activation": "inactive: -1%"},
      {"smiles": "Cc1ccc(NCCc2c([N+](=O)[O-])cc([N+](=O)[O-])cc2[N+](=O)[O-])cc1", "activation": "inactive: 4.1%"},
      {"smiles": "CP(=O)(Nc1cccc(Br)c1)Oc1ccccc1", "note": "(stereo not given)", "activation": "inactive: -1.6%"},
      {"smiles": "Cc1cc(C)cc(OP(C)(=O)Nc2ccccn2)c1", "note": "(stereo not given)", "activation": "inactive: 0.5%"},
      {"smiles": "CCCOP(=S)(Nc1nc(N)cc(=O)[nH]1)OCCC", "activation": "inactive: -0.2%"},
      {"smiles": "Cc1ccc(C)c(NP(C)(=O)Oc2ccccc2)c1", "note": "(stereo not given)", "activation": "inactive: -1.7%"},
      {"smiles": "COc1cc(I)ccc1[As](=O)(O)O", "activation": "inactive: 0.4%"},
      {"smiles": "COc1ccc2nc(NP(=O)(c3ccccc3)c3ccccc3)sc2c1", "activation": "inactive: 0.1%"},
      {"smiles": "Cc1c2c(nc3ccccc13)SC(C(Cl)Cl)C2", "note": "(stereo not given)", "activation": "inactive: 2%"},
      {"smiles": "Cc1cc(=O)[nH]c(N[N+](=O)[O-])n1", "activation": "inactive: 1.3%"},
      {"smiles": "CCN(CC)CCCOC(=O)C(O)(c1ccccc1)c1ccccc1", "activation": "inactive: 0.1%"},
      {"smiles": "O=C(OC1CN2CCC1CC2)C12CC3CC(CC(C3)C1)C2", "note": "(stereo not given)", "activation": "inactive: -0.7%"},
      {"smiles": "COc1ccc(N/C(=N/P(=O)(N2CCOCC2)N2CCOCC2)N2CCOCC2)cc1", "activation": "inactive: -0.6%"},
      {"smiles": "CC(Cc1ccc(O)cc1)NCC(O)c1cc(O)cc(O)c1", "note": "(stereo not given)", "activation": "inactive: 2.9%"},
      {"smiles": "Cc1cccc(C)c1OP(C)(N)=O", "note": "(stereo not given)", "activation": "inactive: 1.7%"},
      {"smiles": "CC(C)(C)c1ccc(OP(C)(=O)Nc2ccc(SC(F)(F)F)cc2)cc1", "note": "(stereo not given)", "activation": "inactive: 22.1%"},
      {"smiles": "Cc1ccc(OP(=O)(Nc2ccc([N+](=O)[O-])cn2)Oc2ccc(C)cc2)cc1", "activation": "inactive: 5%"},
      {"smiles": "Cc1ccc2nc3c(c(C)c2c1)CC(C(Cl)Cl)S3", "note": "(stereo not given)", "activation": "inactive: 6.8%"},
      {"smiles": "O=[N+]([O-])c1cc([N+](=O)[O-])c(Nc2cccnc2)c([N+](=O)[O-])c1", "activation": "inactive: 7.5%"},
      {"smiles": "COc1cc(C(=O)NCC2(N3CCOCC3)CCCCC2)ccc1OCC(C)C", "activation": "inactive: 0.4%"},
      {"smiles": "C[As](=O)(O)c1cccc(C(=O)O)c1", "activation": "inactive: -1.1%"},
      {"smiles": "O=[As](O)(c1ccc(O)cc1)c1ccccc1O", "activation": "inactive: 1%"},
      {"smiles": "O=[N+]([O-])c1cc([N+](=O)[O-])c(-c2ccn[nH]2)s1", "activation": "inactive: 1.6%"},
      {"smiles": "COc1ccc(OP(C)(=O)Nc2cccc(F)c2)cc1", "note": "(stereo not given)", "activation": "inactive: -0.7%"},
      {"smiles": "CCN(CC)C(=S)SC(NC=O)C(Cl)(Cl)Cl", "note": "(stereo not given)", "activation": "inactive: 1.2%"},
      {"smiles": "O=C(OC1CN2CCC1CC2)c1cccc2[nH]cnc12", "note": "(stereo not given)", "activation": "inactive: 0.6%"},
      {"smiles": "COc1ccccc1OP(C)(=O)Nc1cc(Cl)ccc1C", "note": "(stereo not given)", "activation": "inactive: 1.6%"},
      {"smiles": "CC(C)NC(=O)NP(=O)(Oc1ccccc1)Oc1ccccc1", "activation": "inactive: -0.5%"},
      {"smiles": "Cc1cc(C)cc(OP(C)(N)=O)c1", "note": "(stereo not given)", "activation": "inactive: -2.3%"},
      {"smiles": "ClCCSc1nnc(-c2cccnc2)o1", "activation": "inactive: -0.4%"},
      {"smiles": "CCOC(=O)c1ccc(NP(C)(=O)Oc2ccccc2)cc1", "note": "(stereo not given)", "activation": "inactive: 1.5%"},
      {"smiles": "Cc1ccc(NP(C)(=O)Oc2ccccc2)c(C)c1", "note": "(stereo not given)", "activation": "inactive: -2.5%"},
      {"smiles": "CC(C)c1ccc(OP(=O)(Nc2ccccn2)Oc2ccccc2F)cc1", "note": "(stereo not given)", "activation": "inactive: 3.8%"},
      {"smiles": "COc1ccccc1OP(C)(=O)Nc1ccc(C)cc1", "note": "(stereo not given)", "activation": "inactive: 0%"},
      {"smiles": "Cc1cc(SC(NC(=O)c2ccccc2)C(Cl)(Cl)Cl)nc(C(C)C)n1", "note": "(stereo not given)", "activation": "inactive: -0.2%"},
      {"smiles": "CCCCOc1ccc(C(=O)NCC2(N3CCCCC3)CCCCC2)cc1OC", "activation": "inactive: -0.5%"},
      {"smiles": "CCOC(=O)Nc1ccc([As](=O)(O)O)c(O)c1", "activation": "inactive: -0.6%"},
      {"smiles": "COc1ccccc1OP(C)(=O)Nc1ccccc1", "note": "(stereo not given)", "activation": "inactive: -0.9%"},
      {"smiles": "O=P(Nc1ccccn1)(c1cccc2ccccc12)c1cccc2ccccc12", "activation": "inactive: 2%"},
      {"smiles": "Cc1cc(SC(NC=O)C(Cl)(Cl)Cl)ncn1", "note": "(stereo not given)", "activation": "inactive: -1.1%"},
      {"smiles": "CP(=O)(Nc1ccccc1Br)Oc1ccccc1", "note": "(stereo not given)", "activation": "inactive: -0.4%"},
      {"smiles": "CP(=S)(Nn1cnnc1)Oc1ccccc1", "note": "(stereo not given)", "activation": "inactive: -0.2%"},
      {"smiles": "CCOC(=O)Nc1cccc([As](=O)(O)O)c1", "activation": "inactive: 0%"},
      {"smiles": "O=C(Nc1ccncc1[N+](=O)[O-])c1ccc([N+](=O)[O-])cc1[N+](=O)[O-]", "activation": "inactive: -0.2%"},
      {"smiles": "Cc1cc(C)cc(OP(C)(=O)Nc2ccc(SC(F)(F)F)cc2)c1", "note": "(stereo not given)", "activation": "inactive: 11.2%"},
      {"smiles": "CCc1ccc(OP(C)(=O)N2CCN(c3ccc([N+](=O)[O-])cc3)CC2)cc1", "note": "(stereo not given)", "activation": "inactive: 0.7%"},
      {"smiles": "O=C(COc1ccccc1)OC1CN2CCC1CC2", "note": "(stereo not given)", "activation": "inactive: -2.5%"},
      {"smiles": "CP(=O)(NC(=O)Nc1ccccc1)Oc1ccccc1", "note": "(stereo not given)", "activation": "inactive: 0.8%"},
      {"smiles": "CP(=O)(Oc1ccccc1)OC(c1ccccc1)C(F)(F)F", "note": "(stereo not given)", "activation": "inactive: -0.9%"},
      {"smiles": "Cc1cccc(C)c1OP(C)(=O)Nc1ccc(SC(F)(F)F)cc1", "note": "(stereo not given)", "activation": "inactive: 29%"},
      {"smiles": "CP(=O)(Nc1ccc(SC(F)(F)F)cc1)Oc1ccc(Cl)cc1", "note": "(stereo not given)", "activation": "inactive: 2.4%"},
      {"smiles": "COP1(=S)c2c(C)nn(CCC#N)c2N=C(c2ccc(F)cc2)N1C", "note": "(stereo not given)", "activation": "inactive: 0.8%"},
      {"smiles": "CCC(C)N(CC(C)C)C(=S)SC(NC(C)=O)C(Cl)(Cl)Cl", "note": "(stereo not given)", "activation": "inactive: -0.7%"},
      {"smiles": "CP(=O)(Nc1ccccn1)Oc1ccc(Cl)cc1", "note": "(stereo not given)", "activation": "inactive: -1.1%"},
      {"smiles": "O=C(OC1CN2CCC1CC2)c1cccc([N+](=O)[O-])c1", "note": "(stereo not given)", "activation": "inactive: -1.2%"},
      {"smiles": "CCOP(C)(=S)SCC(=O)NC(C)C(=O)O", "note": "(stereo not given)", "activation": "inactive: 0.3%"},
      {"smiles": "CCOC(=O)c1ccc(NC(=O)C(C)(CCl)SC)cc1", "note": "(stereo not given)", "activation": "inactive: 1.2%"},
      {"smiles": "CCOC(=O)c1ccc(NP(C)(=O)Oc2ccc(OC)cc2)cc1", "note": "(stereo not given)", "activation": "inactive: 1%"},
      {"smiles": "O=[N+]([O-])c1cc([N+](=O)[O-])c(O)c([N+](=O)[O-])c1.c1ccc(Oc2ccncc2)cc1", "activation": "inactive: -0.2%"}
    ]}
  ]
}
